Source: US7407939B2, “Protein kinase inhibitors comprising ATP mimetics conjugated to peptides or peptidomimetics” (CureGenics Ltd., priority 2001, dated 2008)

How the values were obtained:
PKA = biological target: T1, PKA (Bos taurus, UniProt P00517); experiment: In vitro PKA kinase activity assay (kemptide / SPA beads); format: biochemical; settings: read-out: IC50 PKA nM; Table 1, most preferred compounds;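 note: Cell-free assay of purified PKA catalytic subunit phosphorylating the 7-mer kemptide substrate, run in MOPS buffer with magnesium acetate and BSA, with blank wells lacking enzyme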
T1 construct: purchased Promega
Description: 1. […] PKA activity is assayed on a 7-mer peptide, LRRASLG, known as kemptide. The assay is carried out in 96-well plates, in a final volume of 50 μl per well. The reaction mixture includes various concentrations of the inhibitor, 50 mM MOPS, 10 mM MgAc, 0.2 mg/ml BSA, 10 μM ATP, 20 μM Kemptide and 1 μCi γ^32P ATP. Reaction is started with addition of 15 μl of the catalytic subunit of PKA diluted in 0.1 mg/ml BSA, 0.4 U/well. Two blank wells without enzyme are included in every assay. […] Reaction is stopped by addition of 12 μl 200 mM EDTA. 20 μl aliquots of the assay mixture are spotted onto 2 cm^2 phosphocellulose strips (e.g. Whatman P81) and immersed in 75 mM phosphoric acid (10 ml per sample). The phosphocellulose strips are washed 6 times. […] After air drying the strips, radiation is measured by scintillation spectrometry.

PKB = biological target: T2, PKB (Homo sapiens, UniProt P31749); experiment: PKB in vitro kinase activity assay (soluble His-HA-PKB / SPA bead screening); format: biochemical; settings: read-out: IC50 PKB nM; Table 1, most preferred compounds
T2 construct: His; HA; made in house
Description: 1. […] The enzyme activity measurement is performed as described in the assay for PKA.

Row | Substance | IC50 (PKA) [nM] | IC50 (PKB) [nM]
1 | Arg-Pro-Arg-Nle-Glu-(5-mercaptoaminopropyl-isoquinoline)-Ser-Phe [PTR 6136] | 11 | 114
2 | Arg-Pro-Arg-Nva-Glu-(5-mercaptoaminopropyl-isoquinoline)-Ser-Phe [PTR 6134] | 18 | 217
3 | Arg-Pro-Arg-Thr-Glu-(5-mercaptoaminopropyl-isoquinoline)-Ser-Phe [PTR 6104] | 100 | 100
4 | Arg-Pro-Arg-Thr-Glu-(bAla-5-mercaptoaminopropyl-isoquinoline)-Ser-Phe [PTR 6102] | 100 | 300
